Results on 1 compound are retold here after patent publication US11141489B2, “Conjugates comprising an GLP-1/Glucagon dual agonist, a linker and hyaluronic acid” (SANOFI, priority 2016, dated 2021).

Where only a bound is given, the exact number is not on record here.

Experiment [1] in a line: Body mass and feed consumption in female diet-induced obese (DIO) C57BL/6 mice. The format is in vivo, C57BL/6NHsd mice. The text has this:
Effects after Subcutaneous Treatment on Blood Glucose, Body Mass, Whole Body Fat Content, and Feed Consumption in Female Diet-Induced Obese (DIO) C57BL/6 Mice
Female C57BL/6NHsd mice were ordered group housed from Envigo RMS Inc., shipped group housed and remained group housed with shipped cage mates in disposable shoebox caging with wood chip bedding until day 38 of the pre-dose phase. At the study start mice were between 25-26 weeks old.
Mice were housed under vivarium conditions that included a 12 h light/dark cycle (light phase 04:00 AM-4:00 PM), room temperatures between 21-25° C. and a relative humidity between 30-70%. All animals had free access to water and diet (DIO: 75-TD97366, Lean: 10-Harlan2014) for 16 weeks prior to pharmacological intervention (dosing phase). Feed was replaced with fresh feed weekly until and for the last time on day 38 of the pre-dose phase. During the subsequent dosing phase, a portion of the remaining feed was removed, replaced with fresh feed, and pellets were mixed evenly once per week.
On pre-dose day 38, obese DIO mice were assigned to treatment groups (n=8) to match mean body masses between all DIO groups. An age-matched group with ad libitum access to a rodent maintenance diet was included in the study as a lean control group.
Mice were treated in the morning on day 1 and between 1:00 and 3:00 PM on days 8, 15, and 22—with a s.c. injection of cross-linked hyaluronic acid or 0.88 mg/kg*week SEQ ID NO: 5 using a 30 G needle. The applied volume was 300 μl per animal and alternate injection sites were used each week (1st injection left scapular, 2nd injection: right scapular, 3rd injection: left flank, 4th injection: right flank).
Body mass and feed consumption (estimated for groups of four mice housed in one cage) were measured daily between 01:00-03:00 PM throughout the 28 days of the dosing phase.
For statistical analyses a One-Way Analysis of Variance (ANOVA) was performed with Sigmaplot 12.5. The power of the performed test was alpha=0.050:0.999 and a comparison versus the DIO-Vehicle group was performed with Dunnett's Method. Lean-Vehicle group data were used as a reference dataset for the non-obese state.

Experiment [2] is described as follows: Blood glucose in fed, male diabetic db/db mice: pure peptide versus crosslinked HA conjugate (Example 21). Type of experiment: in vivo, BKS.CG-m+/+ Lepr(db)/J mice. Particulars: once daily s.c. 1.7 nmol/kg. As to the method: Effects of SEQ ID NO: 5 after Subcutaneous Treatment on Blood Glucose in Fed, Male Diabetic db/db Mice—Comparison Pure Peptide SEQ ID NO: 5 with Crosslinked HA Conjugate of SEQ ID NO: 5 (Batch C)
Male diabetic, obese BKS.CG-m+/+ Lepr(db)/J mice were ordered from Charles River and upon arrival housed in groups with wood chip bedding. At the study start mice were approximately 13-14 weeks old.
Mice were housed under vivarium conditions including a 12 h light/dark cycle (light phase 06:00 AM-6:00 PM), room temperatures between 23-26° C. and a relative humidity between 30-70%. All animals had free access to water and a rodent maintenance diet (Ssniff R/M−H).
Seven days prior to dosing body mass and HbA1c measurements were performed. Thereafter animals were assigned to treatment groups (n=8) and to new cages to match mean HbA1c and body masses between the db/db groups.
The dosing intervals were: […]
Animals had unlimited access to water and feed during the experiment. On day 1 of the dosing phase blood glucose concentrations were measured prior to and 4 hours post-treatment. Thereafter blood glucose concentrations were assessed daily between 8:30 and 9:30 AM. For this purpose approximately 2 μL of blood were collected from the tail and blood glucose concentrations measured using a handheld device (Accu Chek). […]

With `CCCCCCCCCCCCCCCC(=O)N[C@@H](CCC(=O)NCCCC[C@H](NC(=O)[C@H](CCC(N)=O)NC(=O)[C@H](CCCCN)NC(=O)[C@H](CO)NC(=O)[C@H](CC(C)C)NC(=O)[C@H](CC(=O)O)NC(=O)[C@H](CO)NC(=O)[C@@H](NC(=O)[C@H](Cc1ccccc1)NC(=O)[C@@H](NC(=O)CNC(=O)[C@H](CCC(N)=O)NC(=O)[C@@H](CO)NC(=O)[C@@H](N)Cc1c[nH]cn1)[C@@H](C)O)[C@@H](C)O)C(=O)N[C@@H](CCC(=O)O)C(=O)N[C@@H](CO)C(=O)N[C@@H](CCCCN)C(=O)N[C@@H](C)C(=O)N[C@@H](C)C(=O)N[C@@H](CCC(N)=O)C(=O)N[C@@H](CC(=O)O)C(=O)N[C@@H](Cc1ccccc1)C(=O)N[C@H](C(=O)N[C@@H](CCC(=O)O)C(=O)N[C@@H](Cc1c[nH]c2ccccc12)C(=O)N[C@@H](CC(C)C)C(=O)N[C@@H](CCCCN)C(=O)N[C@@H](C)C(=O)NCC(=O)NCC(=O)N1CCC[C@H]1C(=O)N[C@@H](CO)C(=O)N[C@@H](CO)C(=O)NCC(=O)N[C@@H](C)C(=O)N1CCC[C@H]1C(=O)N1CCC[C@H]1C(=O)N1CCC[C@H]1C(=O)N[C@@H](CO)C(N)=O)[C@@H](C)CC)C(=O)O` [SEQ ID NO: 5, H-dSer-Q-G-T-F-T-S-D-L-S-K-Q-K(γE-x53)-ESKAAQDFIEWLKAGGPSSGAPPPS-NH2], in experiment [1] (0.88 mg/kg*week s.c., female DIO mice), the “feed consumption effect following the first dose” value is on record as “pronounced feed consumption inhibition”. Moreover, the “body mass effect of the first dose” value in experiment [1] (0.88 mg/kg*week s.c., female DIO mice, lasted until day 8 (batch C)) was “marked and sustained body mass-reducing effect”. Moreover, in experiment [1] (0.88 mg/kg*week s.c., female DIO mice, then comparable to DIO-vehicle group), the “time to normalized feed consumption” value is recorded as no more than 8 days. Moreover, in experiment [1] (day 28, after four doses (day 1, 8, 15, 22) of 0.88 mg/kg*week s.c., statistically significant), the “mean body mass below the mean body mass of the DIO-Vehicle group” value is listed as “approximately 13.6 g”. Also, in experiment [2] (as long as the animals were dosed), the “day up to which blood glucose concentrations were decreased” value was no more than 13 days. Besides, the “effect on blood glucose concentrations” value in experiment [2] (day 0 to day 13, fed male db/db mice) is given as “strong decrease in blood glucose concentrations”.
